Earlier results as cited in US10201537B2 (INFLAMMATORY RESPONSE RESEARCH, INC., priority 2013, dated 2019).
“Also recorded” adds a separate entry of the source.

Settings: levocetirizine, oral

O=C(O)COCCN1CCN([C@H](c2ccccc2)c2ccc(Cl)cc2)CC1 [Levocetirizine]
time to steady state level (in words): less than two days; also recorded: within two days
